The numbers were not newly measured in US7414031B2, “5-nitro-nucleoside compounds for treating viral infections” (priority 2004, dated 2008), which cites them from elsewhere.

For this series the following is noted: in vivo; cited from earlier work.

As to `NC(=O)c1ncn([C@@H]2O[C@H](CO)[C@@H](O)[C@H]2O)n1` [Ribavirin, 1-β-D-ribofuranosyl-1H-1,2,-4-triazole-3-carboxamide], the teratogenicity / embryotoxicity entry is “teratogenic and embryotoxic”.
